# Apparent affinities of Ab-14 variants for a coronavirus HR2 peptide

Source: Li et al. 2023 (doi:10.1038/s41467-023-39022-2), MIT Lincoln Laboratory and A-Alpha Bio; data file from the FLAb repository.

Antigen: PDVDLGDISGINAS, a 14-residue peptide of the SARS-CoV-2 spike HR2 region.

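This is the validation round: designs drawn from the data on random variants, tested in the same kind of assay. Group labels follow the data file (En: ensemble of fine-tuned language models; GP: Gaussian process model; HC: hill climbing; Gen: genetic algorithm; Gibbs: Gibbs sampling; a sequence that several methods proposed may carry one label only). AlphaSeq pools MATa yeast showing the antibodies with MATalpha yeast showing the peptide. Mating (16 h, 30 °C) was followed by selection of diploids and sequencing of their barcodes. A regression on co-assayed BCL2-family reference pairs converts the normalised counts of each replicate to an apparent Kd. Each pool was mated in six replicate cultures.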

The variants keep the heavy chain, the linker and the frameworks of Ab-14 (scFv order VH, a 15-residue (Gly4Ser)3 linker, VL).
VH: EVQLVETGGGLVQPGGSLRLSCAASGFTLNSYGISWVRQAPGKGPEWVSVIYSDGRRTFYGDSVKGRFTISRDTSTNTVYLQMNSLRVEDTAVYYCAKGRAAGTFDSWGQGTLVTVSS
VL: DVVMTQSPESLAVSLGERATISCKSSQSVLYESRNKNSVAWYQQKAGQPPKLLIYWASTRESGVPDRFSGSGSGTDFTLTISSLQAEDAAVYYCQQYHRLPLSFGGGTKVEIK

Each variant is given by its three light chain CDRs, as the data file delimits them; those of the parent are KSSQSVLYESRNKNSVA, WASTRES, QQYHRLPLS.
Variants here have more than six changes.
The Kd shown is the geometric mean over detected replicates; a lower Kd is a better binder.
The parent sequence was in this pool as ten entries: three were never detected, three once, and four in most replicates, with averages from 2.2 nM to 240 nM.
A sequence measured in both rounds can read differently, since the two assays cover different ranges.
In the paper, a design with two or fewer of six values counts as a poor binder.
Empty control strains, which show no peptide, gave a signal in 4% of pairings with all light chain designs; the median was 430 nM and 95% of these signals were weaker than 38 nM. No background was subtracted.

* KLTMITGLEKVHGNNVA, EMETRER, QQYNRLPLA [En_Gen] -> 3.5 nM (5 of 6 replicates)
* KFNGAWPGDIQNNQNIA, SADTLNH, QQYAKLPLS [En_Gibbs] -> 4.6 nM (6 of 6 replicates)
* KLSQSVEQLSRNKNSVA, HASQREV, QQYHRLPLS [GP_Gibbs] -> 770 pM (6 of 6 replicates)
* MVNGIMDHLSKQTNNVA, ETTTREM, QQYDRLPLS [En_Gen] -> 7.1 nM (6 of 6 replicates)
* RMQEDLQLGTNIGNNIA, EHQTVID, QQYAHLPLQ [En_Gibbs] -> 23 nM (6 of 6 replicates)
* KLMQSTLYESRMANNVA, YASTREE, QQYHRLPLS [GP_Gibbs] -> 9.7 nM (6 of 6 replicates)
* MMSQMFEGLSTSKNPVA, QVSTRME, QQYHRLPLS [En_HC] -> 42 nM (6 of 6 replicates)
* KVSQEVDYQSRNKNSVA, DASQREE, QQYHRLPLS [GP_Gibbs] -> 27 nM (6 of 6 replicates)
* KLSQVTHSEHKLKNSIA, EMVTREK, QQYDRLPLS [En_HC] -> 6.7 nM (6 of 6 replicates)
* IVSQLMLWGKSAKNSIA, EAVTRLN, QQYDRLPLF [En_Gen] -> 15 nM (6 of 6 replicates)
* KIGFVTNGISRNKNSVA, EQSTRED, QQYNRLPLS [En_HC] -> 3.9 nM (6 of 6 replicates)
* KLMGSMLYEQRMKNSVA, QASTRMS, QQYHRLPLS [GP_Gibbs] -> 9.7 nM (6 of 6 replicates)
* TISGMTNQAMSSHNSVA, NVTMRPQ, QQYHRLPLS [En_Gen] -> 3.4 nM (6 of 6 replicates)
* TLSQMSGIEAVKHNSVA, ENSTREN, QQYDRLPLS [En_Gen] -> 920 nM (5 of 6 replicates)
* KLRMMTLTEGYFKNSVA, QASTREN, QSYHRLPLS [En_HC] -> 12 nM (6 of 6 replicates)
* KLSKMVMYESRNKNSVA, SASTRYE, QQYHRLPLS [GP_Gibbs] -> 3.2 nM (6 of 6 replicates)
* KLPGEQGYESRNKASVA, EASTRES, QQYHRLPLS [GP_Gibbs] -> 2.1 nM (6 of 6 replicates)
* KLSQSHLYEERNDNSVA, SASQREM, QQYHRLPLS [GP_Gibbs] -> 2.0 nM (6 of 6 replicates)
* KLVWSDLYESRNKNNVA, GVSQRES, QQYHRLPLS [GP_Gibbs] -> 290 pM (6 of 6 replicates)
* ILSQSVLMGMHTKNSVA, QATMRFN, QQYHRLPLI [En_HC] -> 83 nM (6 of 6 replicates)
* KVTFYMQGSNAMDNSIA, QTNIYHE, QQYGRLPLV [En_Gibbs] -> 160 nM (3 of 6 replicates)
* MISQLYNMGTFAINSVA, QASIRNE, QQYDRLPLT [En_Gen] -> 2.8 nM (6 of 6 replicates)
* HMRHEFYGYWNYDQAVA, HANQRLN, QQYSRLPFS [En_Gibbs] -> 68 nM (4 of 6 replicates)
* QLSGITGHLSMIKNNVA, EMETREN, QQYERLPLS [En_Gen] -> 13 nM (6 of 6 replicates)
* MISNVMNTLSRQGNNVA, DLAERER, QQYFRLPLS [En_Gen] -> 29 nM (4 of 6 replicates)
* IVSQLMIWGMHLKNSIA, EAQTRLN, QQYDRLPLM [En_Gen] -> 620 nM (2 of 6 replicates)
* KISQSFLMESMNKNSVA, NASTRIW, QQYHRLPLS [GP_Gibbs] -> 1.3 nM (6 of 6 replicates)
* KISQNMGETQRNKNSVA, EVSTVPW, QQYWRLPLS [En_HC] -> 34 nM (6 of 6 replicates)
* HSSWGVDDESRNDNSVA, DASTRES, QQYHRLPLS [GP_Gibbs] -> 1.0 nM (6 of 6 replicates)
* KISQMVRVGSTHGNSIA, EEATRAK, QQYHRLPLS [En_Gen] -> 5.2 nM (6 of 6 replicates)
* HISQMWMLESKNKNNVA, EENTRED, QSYFRLPLS [En_HC] -> 8.1 nM (6 of 6 replicates)
* QLDLRMNEQGMQPAAIA, GATNRHT, QQYQKLPLS [En_Gibbs] -> 5.4 nM (6 of 6 replicates)
* QISLNGWDGEKKEYAVA, EGTKKDA, QQYSRLPLS [En_Gibbs] -> 4.1 nM (6 of 6 replicates)
* NLGQKMALITEQRNQIA, DSTVRED, QQYSRLPLT [En_Gibbs] -> 16 nM (6 of 6 replicates)
* HISANNWMQGSQWDAVA, QGEIANN, QQYARLPLS [En_Gibbs] -> 7.9 nM (6 of 6 replicates)
* KWDQSVDGQSRNKNSVA, QASQREW, QQYHRLPLS [GP_Gibbs] -> 3.9 nM (6 of 6 replicates)

The closing 2 entries, repeated:

{"CDR-L1": "HISANNWMQGSQWDAVA", "CDR-L2": "QGEIANN", "CDR-L3": "QQYARLPLS", "group": "En_Gibbs", "apparent Kd": "7.9 nM", "detected": "6 of 6"}
{"CDR-L1": "KWDQSVDGQSRNKNSVA", "CDR-L2": "QASQREW", "CDR-L3": "QQYHRLPLS", "group": "GP_Gibbs", "apparent Kd": "3.9 nM", "detected": "6 of 6"}